We go through 1 molecule from patent publication US20250382381A1 (CORNELL UNIVERSITY, published 2025).

For experiment [1], the target named is T1, ART5 (human ART1 paralog) (human, UniProt Q96L15 23-291, limits assumed).
T1 construct: Coated on the ELISA plate; The construct is not described
T1 sequence (looked up): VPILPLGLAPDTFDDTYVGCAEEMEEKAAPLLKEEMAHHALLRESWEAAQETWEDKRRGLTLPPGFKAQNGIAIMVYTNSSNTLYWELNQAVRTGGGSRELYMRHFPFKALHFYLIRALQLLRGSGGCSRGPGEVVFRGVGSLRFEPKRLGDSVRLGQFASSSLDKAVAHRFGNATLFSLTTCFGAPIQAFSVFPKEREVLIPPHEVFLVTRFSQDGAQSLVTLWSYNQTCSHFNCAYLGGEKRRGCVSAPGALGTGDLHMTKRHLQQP
In words: ELISA, paralog coated at 2.5 µg/mL, anti-human HRP secondary. As for the experimental part:
(§1) FIG. 33. Binding of TDI-Y-009 (22C12 hLC1 IgG4) to ART1 and ART1 paralogs. Bound antibody was detected through colorimetric reaction mediated by the HRP-conjugated secondary antibody reagent.
(§2) To assess selectivity of TDI-Y-009, binding to ART1 paralogs (ART3, ART4, ART5) was performed by ELISA. Briefly, ART1 or the paralogs were plated on a high binding ELISA plate at 2.5 μg/mL in 1×PBS and incubated o/n at 4° C. with shaking. After blocking, 1:5 serial dilutions of TDI-Y-009 mAb were added to the plate and incubated at RT for 90′. After washing, a 1:12,000 dilution of a goat anti-human secondary HRP labeled mAb was then added and incubated at RT for 1 hour before washing, adding the TMB substrate and reading out absorbance at 450 nm following color development and reaction quenching with acid.

The target in experiment [2] is T2, ART3 (human ART1 paralog) (human, UniProt Q13508 27-362, limits assumed).
T2 construct: Coated on the ELISA plate; The construct is not described
T2 sequence (looked up): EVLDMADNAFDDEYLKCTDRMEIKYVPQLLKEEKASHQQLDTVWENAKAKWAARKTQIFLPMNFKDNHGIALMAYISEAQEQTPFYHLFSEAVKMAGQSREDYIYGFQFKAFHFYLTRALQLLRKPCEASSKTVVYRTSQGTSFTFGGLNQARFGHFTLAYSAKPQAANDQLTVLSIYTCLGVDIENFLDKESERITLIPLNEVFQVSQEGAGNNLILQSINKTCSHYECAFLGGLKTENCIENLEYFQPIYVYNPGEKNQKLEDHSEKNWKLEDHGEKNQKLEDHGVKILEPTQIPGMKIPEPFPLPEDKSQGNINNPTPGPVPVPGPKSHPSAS
Described as above. As for the experimental part:
as §1, §2

The target in experiment [3] is T3, ART4 (human ART1 paralog) (human, UniProt Q93070 47-285, limits assumed).
T3 construct: Coated on the ELISA plate; The construct is not described
T3 sequence (looked up): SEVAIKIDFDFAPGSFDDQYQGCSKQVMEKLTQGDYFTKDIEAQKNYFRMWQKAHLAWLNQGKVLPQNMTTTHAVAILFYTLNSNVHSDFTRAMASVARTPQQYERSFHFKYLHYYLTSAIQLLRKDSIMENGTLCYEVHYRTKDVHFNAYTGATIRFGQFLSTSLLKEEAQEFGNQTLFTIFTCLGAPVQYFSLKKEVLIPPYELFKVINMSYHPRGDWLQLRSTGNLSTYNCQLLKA
The description is as above. The procedure: as §1, §2

Experiment [4] deals with T4, ART1 over-expressed on KP1 cells (KP1-ART1^OE).
T4 construct: whole, on cells; The host cells are murine; also called KP1-ART1OE cells; ART1 over-expressing KP1 cells
In words: flow cytometry on ART1 over-expressing KP1 cells, anti-human IgG Fc detection. As for the experimental part:
FIG. 34. Binding of the 22C12 hLC1 IgG4 (TDI-Y-009) antibody to ART1 over-expressing KP1 cells.
Briefly, KP1-ART1^OE or KP1-ART1 knockdown cells were seeded on plates at 100,000 cells/well. Test antibodies starting at 100 μg/mL were serially diluted 1:5 then added to cells and incubated for 30 minutes on ice followed by washes. Cells were then stained with an anti-human IgG Fc and incubated for 30 minutes on ice followed by washes. Cells were resuspended in Flow buffer containing 1000× diluted SYTOX green dead stain and plates were read on Cytoflex flow cytometer. Dose-responsive binding to KP1-ART1^OE cells by TDI-Y-009 was observed (FIG. 34), but not to KP1-ART1 knockdown cells (data not shown).
Background: A flow cytometer gives signals particle by particle.

Experiment [5] concerns the target T5, purified recombinant human ART1 (human, UniProt P52961 23-295).
T5 construct: Produced in HEK293 cells and purified; also called huART1; human ADP-ribosyltransferase 1
T5 sequence: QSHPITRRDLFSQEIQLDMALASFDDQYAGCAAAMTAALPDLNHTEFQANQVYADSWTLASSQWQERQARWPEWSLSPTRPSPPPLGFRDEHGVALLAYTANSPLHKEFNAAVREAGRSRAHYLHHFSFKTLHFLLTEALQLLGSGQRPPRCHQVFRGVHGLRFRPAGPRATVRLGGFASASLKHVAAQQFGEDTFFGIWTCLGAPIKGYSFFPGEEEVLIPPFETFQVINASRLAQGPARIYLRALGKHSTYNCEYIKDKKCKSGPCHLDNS
In words: binding affinity to human ART1 (summary table; Biacore per Table 11). The procedure: (§3) Sequence identity of cynomolgus and mouse ART1 to human ART1 are 95% and 76% respectively. Studies were run on Biacore 4000 using a C1 sensor chip. Briefly, goat anti-human antibody was amine coupled to the C1 sensor chip using standard NHS/EDC (0.1/0.4 M) activation, followed by the antibody at 50 μg/mL in 10 mM NaAc pH 5.0 and a 1 M ethanolamine blocking step. All studies were done in PBS (NaCl 137 mM, KCl 2.7 mM, Na2HPO4 10 mM, and KH2PO4 1.8 mM @ pH 7.4). Data were collected at 25° C. For each binding cycle, the mAb was diluted to 50 nM, 10 nM, 3.3 nM and 1.1 nM and captured for 60 seconds. The dissociation phase was monitored for 10 minutes followed by a regeneration step. A new aliquot of antibody was captured for each binding cycle. The processed sensorgram data were globally fit using a simple 1:1 interaction model. […] Binding to mouse ART1 was about 2-fold lower relative to human ART (Table 11).

Experiment [6] deals with T6, Cynomolgus ART1 (cynomolgus, UniProt A0A2K5WCR3 23-295).
T6 construct: Analyte in Biacore; The construct is not described
T6 sequence: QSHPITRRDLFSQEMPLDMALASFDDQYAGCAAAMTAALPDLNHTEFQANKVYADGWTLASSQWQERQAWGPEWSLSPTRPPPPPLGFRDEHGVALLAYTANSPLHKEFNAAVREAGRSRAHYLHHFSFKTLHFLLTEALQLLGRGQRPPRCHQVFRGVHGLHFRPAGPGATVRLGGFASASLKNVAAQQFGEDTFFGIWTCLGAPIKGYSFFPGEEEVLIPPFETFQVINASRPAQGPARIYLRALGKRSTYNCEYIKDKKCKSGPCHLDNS
In words: SPR, Biacore 4000, C1 chip, mAb captured by goat anti-human antibody, 25 °C, 1:1 model. As for the experimental part: as §3
(In SPR one partner is held on a chip, and binding of the other changes the refractive index at the surface.)

In experiment [7] the target is T5, purified recombinant human ART1. The description is as above. The procedure:
as §3

The target of experiment [8] is T7, purified recombinant mouse ART1 (mouse, UniProt Q60935 23-290).
T7 construct: Produced in HEK293 cells and purified; also called moART1; murine ART1
T7 sequence: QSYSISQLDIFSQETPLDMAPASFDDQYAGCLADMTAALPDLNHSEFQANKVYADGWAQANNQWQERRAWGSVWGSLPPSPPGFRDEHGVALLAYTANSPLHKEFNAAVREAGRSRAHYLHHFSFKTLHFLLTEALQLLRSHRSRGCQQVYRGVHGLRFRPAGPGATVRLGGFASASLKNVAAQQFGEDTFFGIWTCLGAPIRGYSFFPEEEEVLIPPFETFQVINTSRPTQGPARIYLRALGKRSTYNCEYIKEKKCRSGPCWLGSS
The experiment is described as above. As for the experimental part:
as §3

Experiment [9] deals with T7, purified recombinant mouse ART1. In words: SPR, Biacore 4000. The procedure: as §3
Experiment [10] shares this target. In words: cross-reactivity to mouse ART1 (summary table; Biacore per Table 11). As for the experimental part: as §3
Experiment [11] addresses T5, purified recombinant human ART1. Description: ELISA, ART1 coated at 2.5 ug/mL, 1:5 dilutions of the antibody, HRP-labelled goat anti-human secondary, OD450. As for the experimental part: as §2
A general note: In an ELISA, binding on a coated surface is turned into a signal by an enzyme label.

The target of experiment [12] is T6, Cynomolgus ART1. Description: cross-reactivity to cynomolgus ART1 (summary table; Biacore per Table 11). As for the experimental part: as §3

B1: TDI-Y-009 (22C12 hLC1 IgG4) (antibody, V domains shown)
VH: QVTLKESGPVLVKPTETLTLTCTVSGFSLSNARMGVSWIRQPPGKALEWLAHIFSNDEKSYSTSLKSRLTISKDTSKSQVVLTMTNMDPVDTATYYCARIYGGDSWGYFDNWGQGTLVTVSS
VL: DIQLTQSPSFLSASVGDRVTITCRASSSVSYMHWYQQKPGTSPKRLIYDTSKLASGVPSRFSGSGSGTEYTLTISSLQPEDFATYYCQQWSSNPPTFGQGTKLEIKR
Broadly, the EC50 is the concentration needed to bring the measured effect to its halfway point. One may read the Kd as the free concentration of one partner at which half of the binding sites on the other are occupied at equilibrium, for simple one-to-one binding. The koff is a measure of how fast the partners let go of each other. As a reminder, the kon is the rate constant with which the complex forms. As usually defined, the EC50 (read off the curve) is the concentration giving half of the maximal effect. As to B1, the binding result in experiment [1], in experiment [2] and in [3] was “no binding (tested: 1.3 µM (200 µg/mL))” each time. Besides, the EC50 in experiment [4] was determined as 4.4 nM. Moreover, the dissociation constant Kd is 1.36 nM in experiment [5]; 1.46 nM with Cynomolgus ART1 [6]; 1.36 nM in experiment [7]; 2.7 nM in experiment [8]; 2.7 nM in experiment [10]; 1.46 nM in the experiment with Cynomolgus ART1 [12]. Further, the koff with Cynomolgus ART1 [6] came out at 0.00026 s⁻¹; in experiment [7], 0.00016 s⁻¹; in [8], 0.00033 s⁻¹. The values for the kon (in the experiment with Cynomolgus ART1 [6]; in experiment [7]; in experiment [8]) were 180000 M⁻¹ s⁻¹, 120000 M⁻¹ s⁻¹ and 120000 M⁻¹ s⁻¹, respectively. The “fold lower binding relative to human ART1” value in experiment [9] was about 2 fold. Besides, the “EC50 (read off the curve)” value in [11] was about 0.04 µg/mL.
